The text below walks through data of US20250145566A1, “PHENETHYLAMINE DERIVATIVES, COMPOSITIONS, AND METHODS OF USE” (Cybin IRL Limited, priority 2022, published 2025).

Protein sequences, listed by entry. Tags and fused reporters are not part of them. Residues count along the entry.
UniProt P28335, 33-458: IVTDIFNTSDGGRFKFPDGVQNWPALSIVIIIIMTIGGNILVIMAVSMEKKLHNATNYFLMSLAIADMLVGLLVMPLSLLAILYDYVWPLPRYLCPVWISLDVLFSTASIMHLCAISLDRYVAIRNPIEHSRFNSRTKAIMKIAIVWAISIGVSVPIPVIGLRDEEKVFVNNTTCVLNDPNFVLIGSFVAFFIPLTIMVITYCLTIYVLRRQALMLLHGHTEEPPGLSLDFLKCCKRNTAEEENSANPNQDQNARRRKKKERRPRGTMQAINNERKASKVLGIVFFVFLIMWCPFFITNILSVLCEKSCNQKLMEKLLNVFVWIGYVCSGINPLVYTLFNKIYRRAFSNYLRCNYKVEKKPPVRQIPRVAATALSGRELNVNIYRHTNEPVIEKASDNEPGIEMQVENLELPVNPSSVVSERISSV
UniProt P23975, whole entry: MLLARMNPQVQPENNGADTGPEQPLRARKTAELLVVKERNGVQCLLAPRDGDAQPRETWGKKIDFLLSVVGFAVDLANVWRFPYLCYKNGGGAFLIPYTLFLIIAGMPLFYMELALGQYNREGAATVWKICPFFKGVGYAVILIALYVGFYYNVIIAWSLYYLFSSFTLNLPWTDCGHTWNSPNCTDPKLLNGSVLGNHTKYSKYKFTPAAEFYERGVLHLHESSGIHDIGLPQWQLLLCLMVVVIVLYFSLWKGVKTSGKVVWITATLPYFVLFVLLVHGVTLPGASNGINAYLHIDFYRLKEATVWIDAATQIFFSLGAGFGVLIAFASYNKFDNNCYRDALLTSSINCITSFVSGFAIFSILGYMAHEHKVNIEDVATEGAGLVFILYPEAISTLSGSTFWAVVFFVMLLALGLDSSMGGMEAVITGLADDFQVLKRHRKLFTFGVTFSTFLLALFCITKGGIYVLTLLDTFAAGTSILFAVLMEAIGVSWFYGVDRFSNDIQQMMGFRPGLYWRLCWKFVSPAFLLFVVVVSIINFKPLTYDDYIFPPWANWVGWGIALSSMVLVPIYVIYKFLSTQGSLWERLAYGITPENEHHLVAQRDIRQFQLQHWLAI

Assay [1] concerns the target T1, 5-HT2C (h) (Homo sapiens, UniProt P28335).
T1 construct: expressed in transfected cells; host or cells: HEK-293 cells
The settings on record: read-out: Binding 5-HT2C Ki; antagonist radioligand; literature, racemic; cited from earlier work.

Assay [2] concerns the target T1, 5-HT2C (h). The settings on record: literature, single enantiomers; read-out: Function 5-HT2C EC50; cited from earlier work.
Assay [3] addresses T2, norepinephrine transporter (h) (Homo sapiens, UniProt P23975).
T2 construct: expressed in transfected cells; host or cells: CHO cells
Kind of assay: norepinephrine transporter (h) binding, [3H]nisoxetine. The settings on record: Hill coefficient; reference compound result.

For orientation: Ki means a measure of affinity in units of concentration, obtained from inhibition or displacement. As to `CNC(C)Cc1ccc2c(c1)OCO2` (stereo not shown) [MDMA, 3,4-methylenedioxymethamphetamine], the Ki in assay [1] is over 10 µM.
A word on the EC50: it is the concentration that produces a half-maximal response. Consider `CN[C@H](C)Cc1ccc2c(c1)OCO2` [R-MDMA], for which the concentration giving a half-maximal response (EC50) in assay [2] was 5.4 µM.
`CN[C@@H](C)Cc1ccc2c(c1)OCO2` [S-MDMA]: the EC50 in assay [2] is 2.6 µM.
For the compound `CNCCCC1c2ccccc2C=Cc2ccccc21` [protriptyline, reference compound], in assay [3], the nH was 1.1.
